PubChem BioAssay AID1532 (PCMD, 2009)
Only a part is listed here, and it is no random draw. Activity calls are given as the source filed them. No stated cut-off is given here; in the data, active means inhibition above about 30% (passing the limit was not always enough); inconclusive means no clear call, values can overlap the other calls.

System: RmlC (dTDP-4-dehydrorhamnose 3,5-epimerase) and RmlD (dTDP-4-dehydrorhamnose reductase), coupled enzyme assay
Experiment: RmlC and RmlD coupled enzyme inhibitors, primary screen, biochemical, 384-well, compound mixtures, retest (AID 1532)
Settings: 384-well mixture HTS, at 5.5 µM, stronger effect = higher value

Row | Compound | inhibition
1 | Cc1ccc(OCC(=O)OC2CN3CCC2CC3)cc1 (stereo unspecified) | inactive: -8.03%
2 | O=P1(Nc2ccc(Br)cn2)COc2ccccc2OC1 | inactive: -10.5%
3 | O=P1(Nc2ncccn2)COc2ccccc2OC1 | inactive: -16.8%
4 | Cc1nn(-c2ccccc2)c2c1P(=O)(N1CCOCC1)N(C)C(c1ccccc1)=N2 (stereo unspecified) | inactive: -11.1%
5 | CN(C(=O)Cc1ccc(Cl)c(Cl)c1)[C@@H]1CCCC[C@H]1N1CCCC1 | inactive: -19.3%
6 | CC1(CBr)Cn2c(nc3ccccc3c2=O)S1 (stereo unspecified) | inactive: -12%
7 | Clc1n[nH]nc1-c1nn[nH][15n]1 | inactive: 2.54%
8 | O=P1(Nc2ccccn2)COc2ccccc2OC1 | inactive: -12.3%
9 | CN(CCCl)Cc1cc(Cl)c(NC2=NCCN2)c(Cl)c1 | inactive: 5.41%
10 | Cc1cccc(OCC(=O)OC2CN3CCC2CC3)c1 (stereo unspecified) | inactive: 2.55%
11 | CN(C(=O)Cc1ccccc1)[C@@H]1CC[C@]2(CCCO2)C[C@H]1N1CCCC1 | inactive: 4.12%
12 | CCOP1(=S)c2c(C)nn(CCC#N)c2N=C(c2ccc(F)cc2)N1C (stereo unspecified) | inactive: -13.9%
13 | O=[N+]([O-])c1ccc2c(c1)nnn2O | inactive: -10.4%
14 | CN(C(=O)Cc1ccc(Cl)c(Cl)c1)[C@H]1CC[C@@]2(CCCO2)C[C@@H]1N1CCCC1 | inactive: 6.31%
15 | NC(=O)Nc1ccc([As](=O)(O)O)cc1 | inactive: 8.6%
16 | CCOP1(=S)c2c(C)nn(CCC#N)c2N=C(c2ccccc2F)N1C (stereo unspecified) | inactive: -15.3%
17 | O=P(Nc1nccs1)(c1ccccc1)c1nc2ccccc2s1 (stereo unspecified) | active: 35.6%
18 | CCN(CC)C(=S)SC(NC=O)C(Cl)(Cl)Cl (stereo unspecified) | inactive: 3.14%
19 | ClCCSc1nnc(-c2cccnc2)o1 | inactive: 2.18%
20 | O=C(OC1CN2CCC1CC2)C12CC3CC(CC(C3)C1)C2 (stereo unspecified) | inactive: -5.67%
21 | CCC(C)N(CC(C)C)C(=S)SC(NC(C)=O)C(Cl)(Cl)Cl (stereo unspecified) | inactive: -2.3%

Row | Compound | inhibition
22 | COP1(=S)c2c(C)nn(CCC#N)c2N=C(c2ccc(F)cc2)N1C (stereo unspecified) | inactive: -7.81%
23 | CC1CCN(C(=O)Oc2c(Cl)cc(Cl)c3cccnc23)CC1 | inactive: 9.62%
24 | CCc1nc2c(n1)c1c(non1O)c1c2no[n+]1[O-] | inactive: -0.33%
25 | CC(=O)N1C2C3N(C(C)=O)C1C1N(C(C)=O)C(C(N1C(C)=O)N3C(C)=O)N2C(C)=O | inactive: 5.33%
26 | O=[N+]([O-])c1cccc2n[nH]nc12 | inactive: -9.86%
27 | Cc1c2non([O-])c-2c(C)[n+](=O)[n+]1[O-] | inactive: 2.35%
28 | CC(C)CC(=O)NC(Sc1ccc(Cl)cc1)C(Cl)(Cl)Cl (stereo unspecified) | inactive: 12.8%
29 | CN1CCCC(OC(=O)C(c2ccccc2)c2ccccc2)C1 (stereo unspecified) | inactive: -10.8%
30 | CCOP(=O)(Nc1ccccc1)OCC | inactive: 15.6%
31 | CN(C(=O)Cc1ccc(Cl)c(Cl)c1)[C@H]1CCCC[C@@H]1N1CCCC1 | inactive: 4.45%
32 | CCC(=O)N1C2C3N(C(=O)CC)C1C1N(C(=O)CC)C(C(N1C(=O)CC)N3C(=O)CC)N2C(=O)CC | inactive: 3.62%
33 | COC(=O)c1cc2c(s1)N=C(c1ccccc1)N(C)P2(=O)N1CCOCC1 (stereo unspecified) | inactive: 1.65%
34 | CCOC(=O)NC(Sc1ccccc1)C(Cl)(Cl)Cl (stereo unspecified) | inactive: -15.9%
35 | C[C@H]1OP(=O)(Oc2ccccc2)C[C@@H]2O[C@@H]21 (stereo partly specified) | inactive: 17.4%
36 | C[C@@H]1C=CCP(=O)(Oc2ccccc2)O1 (stereo partly specified) | inactive: 4.14%
37 | O=P1(Nc2nc3ccc(Cl)cc3s2)COc2ccccc2O1 (stereo unspecified) | inactive: 8.91%
38 | c1nnnn1CCn1cnnn1 | inactive: -12%
39 | O=P(Nc1nccs1)(c1ccccc1)c1ccccc1 | inactive: 22.5%
40 | O=C(OC1CN2CCC1CC2)c1cccc(Cl)c1 (stereo unspecified) | inactive: 3.81%
41 | C[C@H]1OP(=O)(Oc2ccccc2)[C@H](O)[C@H](O)[C@H]1N=[N+]=[N-] (stereo partly specified) | inactive: 19.7%
